Experimental data: PMC4076021 (ACS chemical biology, 2014)

Target: GST-LSD1 (Homo sapiens, UniProt O60341)
Assay: biochemical

Structure (SMILES)	IC50 [µM]	kinact [s⁻¹]	kinact/KI (read-out: kinact/Ki(inact)) [M⁻¹ s⁻¹]
CNNCCc1ccccc1.Cl.Cl [9a]	85	–	–
CNNCCCc1ccccc1 [9d]	46.7	–	–
NNCCc1ccc(NC(=O)CCCc2c[nH]c3ccccc23)cc1 [15b]	–	0.00283	28300
